Experimental data reported in US20120114667A1.

Target: avb3 and avb5 integrins on A375M cells
Test: cell-based or functional assay

| Osteopontin Adhesion (% inhibition) at 5 ug/ml, A375M cells | Vitronectin Adhesion (% inhibition) at 5 ug/ml, A375M cells | Binder |
| --- | --- | --- |
| -3% | 0% | 2A9.1A1 (antibody, IgG2, V domains shown) VH: RVQLQESGPGLVKPTQTLSLTCTVSGGSIISGGYFWTWIRQHPGKGLEWIGYIYYSGSTYYSPSLKSRVTISVDTSKNQFSLKLSSVTAADTAVYYCTRAVPAAKGYYSYYGMDVWGQGTTVTVSS VL: DIVMTQSPLSLPVTPGEPASISCRSSQSLLHSNGYNYLDWFLQKPGQSPQLLIYLGSNRASGVPDRFSGSGSGTDYTLKISRVEAEDVGVYYCMQALQTPFTFGPGTKVDIK |
| -3% | 16% | 3C2.2A8 (antibody, IgG2, V domains shown) VH: RVQLQESGPGLVKPTQTLSLTCTVSGGSIISGGYFWTWIRQHPGKGLEWIGYIYYSGSTYYSPSLKSRVTISVDTSKNQFSLKLSSVTAADTAVYYCTRAVPAAKGYYSYYGMDVWGQGTTVTVSS VL: DIVMTQSPLSLPVTPGEPASISCRSSQSLLHSNGYNYLDWFLHKPGQSPQLLIYLGSNRASGVPDRFSGSGSGTDFTLKISRVEAEDVGVYYCMQALQTPFTFGPGTKVDIK |
